From paper PMC12305662, “Fragment-Based Development of Small Molecule Inhibitors Targeting Mycobacterium tuberculosis Cholesterol Metabolism” (Journal of Medicinal Chemistry, 2025)

Chains of the proteins cited; added tags and fusions are not shown. Lines headed by an entry give the natural chain unless they say otherwise; changes in a name come on top.
UniProt P9WPP1: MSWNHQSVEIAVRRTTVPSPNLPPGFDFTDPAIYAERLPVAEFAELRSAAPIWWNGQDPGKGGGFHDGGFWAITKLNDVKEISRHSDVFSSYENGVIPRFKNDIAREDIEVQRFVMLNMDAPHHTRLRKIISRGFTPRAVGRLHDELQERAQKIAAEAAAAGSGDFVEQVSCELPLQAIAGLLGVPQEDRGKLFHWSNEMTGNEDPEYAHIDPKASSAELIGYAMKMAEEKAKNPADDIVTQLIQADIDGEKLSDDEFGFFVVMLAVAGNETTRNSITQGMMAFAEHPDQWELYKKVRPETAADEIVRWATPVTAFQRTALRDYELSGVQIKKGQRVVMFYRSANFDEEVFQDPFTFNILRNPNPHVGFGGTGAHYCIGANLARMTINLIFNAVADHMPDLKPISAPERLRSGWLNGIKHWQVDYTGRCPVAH
UniProt P9WPL5: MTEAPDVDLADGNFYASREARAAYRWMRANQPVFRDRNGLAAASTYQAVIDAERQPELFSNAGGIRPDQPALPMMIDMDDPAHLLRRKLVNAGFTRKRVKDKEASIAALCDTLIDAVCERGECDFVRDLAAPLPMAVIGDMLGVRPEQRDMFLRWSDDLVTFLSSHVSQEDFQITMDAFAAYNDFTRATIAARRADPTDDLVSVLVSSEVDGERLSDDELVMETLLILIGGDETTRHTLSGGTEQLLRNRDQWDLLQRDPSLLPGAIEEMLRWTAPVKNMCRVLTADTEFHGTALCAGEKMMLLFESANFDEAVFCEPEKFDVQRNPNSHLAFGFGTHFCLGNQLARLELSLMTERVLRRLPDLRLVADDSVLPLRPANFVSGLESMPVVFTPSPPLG

Tests used:
[1] = molecular target: T1, CYP125 (Mycobacterium tuberculosis, UniProt P9WPP1); assay type: binding
[2] = molecular target: T1, CYP125; assay type: binding; settings: compound 100 µM, P450 5 µM; ratio of low spin to high spin CYP125
[3] = molecular target: CYP142 (Mycobacterium tuberculosis, UniProt P9WPL5); assay: biochemical

Question: Which “ligand efficiency (LE)” value [1] does the source give for c1ccc(Cc2ccncc2)cc1 [1a] here?
Answer: Its value is 0.4–0.6.

Question: And the “CYP125 LS/HS” value [2]?
Answer: The value was 1.1.

Question: And the Kd [3]?
Answer: Its Kd is 1800 ± 200 nM.
